Conditions: control protein; peptidoglycan, chitin, cellulose, xylan

cytochrome c
binding to insoluble polysaccharides: No binding activity was detected

— publication PMC4083421 (Nature Communications, 2014)
